The target of one experiment is Nitric oxide synthase 1 (Rattus norvegicus, UniProt P29476). In words: Inhibition of rat brain nNOS assessed as nitric oxide mediated oxidation of oxyhemoglobin to methemoglobin.
Another experiment concerns the target T1, Nitric oxide synthase 3 (Bos taurus, UniProt P29473).
T1 sequence (P29473 whole entry): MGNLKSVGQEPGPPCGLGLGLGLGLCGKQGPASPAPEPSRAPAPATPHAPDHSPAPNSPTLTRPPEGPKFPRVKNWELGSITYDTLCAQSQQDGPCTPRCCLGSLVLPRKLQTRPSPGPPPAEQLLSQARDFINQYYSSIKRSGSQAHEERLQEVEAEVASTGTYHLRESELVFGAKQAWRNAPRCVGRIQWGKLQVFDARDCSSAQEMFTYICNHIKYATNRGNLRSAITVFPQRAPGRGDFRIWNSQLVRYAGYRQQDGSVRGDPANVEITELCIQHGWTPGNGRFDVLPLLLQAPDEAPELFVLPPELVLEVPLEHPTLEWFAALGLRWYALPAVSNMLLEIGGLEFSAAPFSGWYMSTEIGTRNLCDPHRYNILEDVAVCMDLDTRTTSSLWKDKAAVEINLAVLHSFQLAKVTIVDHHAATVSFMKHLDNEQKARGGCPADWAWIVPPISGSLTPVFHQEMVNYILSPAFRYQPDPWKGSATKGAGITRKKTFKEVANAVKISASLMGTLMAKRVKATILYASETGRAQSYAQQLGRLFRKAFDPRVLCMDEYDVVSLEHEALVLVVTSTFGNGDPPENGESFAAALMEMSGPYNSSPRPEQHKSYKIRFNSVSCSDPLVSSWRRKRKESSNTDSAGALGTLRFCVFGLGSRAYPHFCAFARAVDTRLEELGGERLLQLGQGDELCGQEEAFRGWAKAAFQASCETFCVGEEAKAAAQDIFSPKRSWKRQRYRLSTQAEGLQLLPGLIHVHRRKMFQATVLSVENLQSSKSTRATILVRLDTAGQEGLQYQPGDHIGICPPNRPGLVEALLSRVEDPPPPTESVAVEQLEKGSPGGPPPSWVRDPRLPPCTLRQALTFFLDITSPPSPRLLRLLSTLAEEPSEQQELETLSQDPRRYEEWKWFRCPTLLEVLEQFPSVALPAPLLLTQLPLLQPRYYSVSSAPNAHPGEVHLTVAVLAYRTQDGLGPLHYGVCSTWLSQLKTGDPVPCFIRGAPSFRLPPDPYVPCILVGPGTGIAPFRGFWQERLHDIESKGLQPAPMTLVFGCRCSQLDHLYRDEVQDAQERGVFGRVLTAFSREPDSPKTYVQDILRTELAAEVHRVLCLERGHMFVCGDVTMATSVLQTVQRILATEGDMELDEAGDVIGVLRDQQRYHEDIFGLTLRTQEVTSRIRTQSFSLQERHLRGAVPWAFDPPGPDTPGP
In words: Inhibition of bovine eNOS assessed as nitric oxide mediated oxidation of oxyhemoglobin to methemoglobin.

Amino acid sequences for entries named in this document (tags omitted).
UniProt P29476, whole entry: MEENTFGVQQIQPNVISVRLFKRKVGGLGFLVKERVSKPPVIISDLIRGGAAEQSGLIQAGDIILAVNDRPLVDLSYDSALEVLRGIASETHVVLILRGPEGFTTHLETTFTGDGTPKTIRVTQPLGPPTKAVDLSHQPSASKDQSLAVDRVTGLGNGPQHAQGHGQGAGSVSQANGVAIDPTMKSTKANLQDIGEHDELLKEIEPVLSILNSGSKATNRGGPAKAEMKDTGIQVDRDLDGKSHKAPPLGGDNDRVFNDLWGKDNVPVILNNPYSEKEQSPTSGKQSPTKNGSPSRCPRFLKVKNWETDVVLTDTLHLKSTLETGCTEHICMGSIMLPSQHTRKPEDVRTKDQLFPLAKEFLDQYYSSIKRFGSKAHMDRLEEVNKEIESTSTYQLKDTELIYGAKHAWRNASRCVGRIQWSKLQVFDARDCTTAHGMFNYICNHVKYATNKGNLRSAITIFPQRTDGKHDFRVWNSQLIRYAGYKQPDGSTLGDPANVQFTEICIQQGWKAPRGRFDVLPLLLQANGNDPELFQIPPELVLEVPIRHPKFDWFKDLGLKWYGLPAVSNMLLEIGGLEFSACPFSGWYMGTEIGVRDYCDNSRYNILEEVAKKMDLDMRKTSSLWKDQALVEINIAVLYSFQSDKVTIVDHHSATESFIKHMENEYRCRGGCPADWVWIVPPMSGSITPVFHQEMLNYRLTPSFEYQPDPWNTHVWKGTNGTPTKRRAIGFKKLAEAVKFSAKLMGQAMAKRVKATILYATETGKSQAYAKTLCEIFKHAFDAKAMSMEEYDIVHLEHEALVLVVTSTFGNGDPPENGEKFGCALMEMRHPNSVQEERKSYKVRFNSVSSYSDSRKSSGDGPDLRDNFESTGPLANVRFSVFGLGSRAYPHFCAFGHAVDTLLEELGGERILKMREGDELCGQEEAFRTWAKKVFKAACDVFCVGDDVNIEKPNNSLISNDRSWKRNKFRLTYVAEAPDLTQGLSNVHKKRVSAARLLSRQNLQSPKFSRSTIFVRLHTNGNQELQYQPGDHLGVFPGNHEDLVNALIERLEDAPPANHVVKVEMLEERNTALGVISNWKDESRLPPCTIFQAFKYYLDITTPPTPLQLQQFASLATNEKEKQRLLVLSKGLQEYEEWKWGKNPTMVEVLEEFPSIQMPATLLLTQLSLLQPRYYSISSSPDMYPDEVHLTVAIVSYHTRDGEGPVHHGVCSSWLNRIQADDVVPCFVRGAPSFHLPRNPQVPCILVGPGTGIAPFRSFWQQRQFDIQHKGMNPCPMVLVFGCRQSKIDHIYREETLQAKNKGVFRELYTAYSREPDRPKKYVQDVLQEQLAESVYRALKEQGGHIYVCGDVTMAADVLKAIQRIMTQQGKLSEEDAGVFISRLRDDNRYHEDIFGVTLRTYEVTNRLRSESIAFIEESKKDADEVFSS

Experimental findings from ChEMBL document CHEMBL1268984, “N-Substituted acetamidines and 2-methylimidazole derivatives as selective inhibitors of neuronal nitric oxide synthase” (Bioorg Med Chem Lett, 2010) are described below.

The term IC50 denotes the concentration that inhibits the measured activity by half.

As for `CC(=N)NCc1cccc(CN)c1` [1400W], the 50% inhibitory concentration (IC50) at Nitric oxide synthase 1 amounted to 7.3 µM; at Nitric oxide synthase 3, 1100 µM.
